From PubChem BioAssay AID782 (Emory University Molecular Libraries Screening Center, 2007)
Only a part is listed here, and it is no random draw. The source made the active and inactive calls.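 The calls were made as follows: active = inhibition above about 30% (limit read from the data); inactive = the rest.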

Amino acid sequences for entries named in this document (tags omitted).
UniProt P63073, whole entry, looked up: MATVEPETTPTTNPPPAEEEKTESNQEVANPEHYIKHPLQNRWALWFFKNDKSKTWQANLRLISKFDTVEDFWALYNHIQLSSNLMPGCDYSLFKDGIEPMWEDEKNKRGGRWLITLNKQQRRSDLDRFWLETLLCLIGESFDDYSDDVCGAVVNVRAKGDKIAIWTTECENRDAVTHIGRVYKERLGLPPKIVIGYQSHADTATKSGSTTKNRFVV
UniProt Q04637, whole entry, looked up: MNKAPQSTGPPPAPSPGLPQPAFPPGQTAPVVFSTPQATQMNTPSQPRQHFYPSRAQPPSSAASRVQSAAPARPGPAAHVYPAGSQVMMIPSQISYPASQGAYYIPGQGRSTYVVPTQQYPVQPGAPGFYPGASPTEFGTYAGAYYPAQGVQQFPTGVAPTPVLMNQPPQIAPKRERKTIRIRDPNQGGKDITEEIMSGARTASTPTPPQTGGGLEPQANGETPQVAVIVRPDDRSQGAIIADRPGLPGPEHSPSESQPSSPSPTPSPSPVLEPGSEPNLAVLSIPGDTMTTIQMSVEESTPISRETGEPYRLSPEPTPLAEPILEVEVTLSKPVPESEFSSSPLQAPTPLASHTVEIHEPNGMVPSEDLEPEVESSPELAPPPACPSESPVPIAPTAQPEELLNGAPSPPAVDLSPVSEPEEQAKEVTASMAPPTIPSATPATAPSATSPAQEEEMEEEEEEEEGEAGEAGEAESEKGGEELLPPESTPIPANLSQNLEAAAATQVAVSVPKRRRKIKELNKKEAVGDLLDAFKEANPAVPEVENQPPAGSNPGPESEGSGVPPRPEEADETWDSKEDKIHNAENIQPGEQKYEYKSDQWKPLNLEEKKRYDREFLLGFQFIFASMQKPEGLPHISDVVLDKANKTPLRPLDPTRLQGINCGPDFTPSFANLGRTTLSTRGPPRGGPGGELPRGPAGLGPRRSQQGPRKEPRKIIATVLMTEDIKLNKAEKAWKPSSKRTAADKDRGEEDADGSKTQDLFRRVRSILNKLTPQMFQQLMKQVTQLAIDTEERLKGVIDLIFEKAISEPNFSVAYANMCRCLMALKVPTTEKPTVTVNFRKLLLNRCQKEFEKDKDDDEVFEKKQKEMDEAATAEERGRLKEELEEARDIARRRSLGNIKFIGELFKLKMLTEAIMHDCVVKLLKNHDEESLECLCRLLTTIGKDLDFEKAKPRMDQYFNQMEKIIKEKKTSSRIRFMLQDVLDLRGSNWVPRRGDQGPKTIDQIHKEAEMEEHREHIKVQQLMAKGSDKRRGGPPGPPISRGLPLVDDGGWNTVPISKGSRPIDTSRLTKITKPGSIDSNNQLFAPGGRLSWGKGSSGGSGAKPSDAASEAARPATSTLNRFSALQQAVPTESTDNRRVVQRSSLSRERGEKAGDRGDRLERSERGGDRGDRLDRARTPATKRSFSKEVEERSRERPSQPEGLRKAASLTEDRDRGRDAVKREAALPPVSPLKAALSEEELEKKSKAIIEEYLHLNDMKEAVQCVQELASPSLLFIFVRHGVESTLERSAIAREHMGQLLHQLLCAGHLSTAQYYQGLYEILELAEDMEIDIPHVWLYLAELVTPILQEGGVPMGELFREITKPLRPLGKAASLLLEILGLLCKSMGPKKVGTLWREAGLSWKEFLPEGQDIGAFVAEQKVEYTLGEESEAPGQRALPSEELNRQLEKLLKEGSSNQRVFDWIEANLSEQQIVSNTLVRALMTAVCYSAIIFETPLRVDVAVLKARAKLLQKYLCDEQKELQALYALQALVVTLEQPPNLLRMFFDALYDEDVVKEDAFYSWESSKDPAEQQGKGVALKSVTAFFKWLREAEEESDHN

Each compound was assayed against Eukaryotic translation initiation factor 4E (Mus musculus) + Eukaryotic translation initiation factor 4 gamma 1 (Homo sapiens) (UniProt P63073+Q04637) (assay: eIF4E–eIF4G protein interaction inhibitors, primary screen, biochemical, uHTS, TR-FRET, eIF4GI fragment (AID 782;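 also: 0% = full FRET control wells and 100% = background wells lacking eIF4GI fragment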)). Conditions: TR-FRET eIF4E-eIF4GI(517-606) binding, 2 h; at 21.7 µM; active compounds read high.

| SMILES | inhibition |
| --- | --- |
| N/C(=N\O)c1c(N)no[n+]1[O-] | inactive: -4.17% |
| O=C(OC1CN2CCC1CC2)C1c2ccccc2C=Cc2ccccc21 (centres undefined) | inactive: -0.52% |
| COc1ccc(C(=O)NCC2(N3CCOCC3)CCCCC2)cc1OC | inactive: 0.51% |
| c1ccc(CN2CCC(Nc3ccccc3)CC2)cc1 | inactive: -8.37% |
| N#Cc1ccc(C(=O)NCC2(N3CCCCC3)CCCCC2)cc1 | inactive: 3.43% |
| CCN1CCC(Nc2cccc(F)c2)CC1 | inactive: -5.11% |
| CN(C)c1ccc(C(=O)NCC2(N3CCCCC3)CCCCC2)cc1 | inactive: 2.27% |
| Fc1ccccc1NC1CCN(Cc2ccccc2)CC1 | inactive: 0.11% |
| CCC(CO)(C(=O)OC1CN2CCC1CC2)c1ccccc1 (centres undefined) | inactive: 4.28% |
| COc1cc(OC)cc(C(=O)NCC2(N3CCOCC3)CCCCC2)c1 | inactive: -3.12% |
| CCCOc1ccc(C)cc1CN(CCCl)CCCl | inactive: -1.45% |
| CCOc1ncccc1C(=O)NCC1(N2CCOCC2)CCCCC1 | inactive: -1.91% |
| CC(C)(C)OC(=O)N1CCC(Nc2ccccc2)CC1 | inactive: -0.47% |
| O=C(NCC1(N2CCOCC2)CCCCC1)c1cc2ccccc2o1 | inactive: -0.65% |
| CCOC(=O)N1CCC(Nc2ccc(OC)cc2)CC1 | inactive: 2.2% |
| O=C(OC1CN2CCC1CC2)C1c2ccccc2Oc2ccccc21 (centres undefined) | inactive: -2.49% |
| N#CC1(Nc2ccccc2)CCN(Cc2ccccc2)CC1 | inactive: -4.6% |
| COc1ccc(C(=O)NCC2(N3CCCCC3)CCCCC2)c(OC)c1OC | inactive: -1.09% |
| Cc1ccc(OCC(C)C)c(CN(CCCl)CCCl)c1 | inactive: 4.22% |
| CCOc1ccc(C)cc1CN(CCCl)CCCl | inactive: 2.72% |
| COc1ccc(NC2CCN(CCc3ccccc3)CC2)c(OC)c1 | inactive: 2.2% |
| COc1ccc(NC2CCN(C(=O)OC(C)(C)C)CC2)cc1 | inactive: 8.68% |
| CN1CCN(CCOC(=O)C(O)(c2ccccc2)c2ccccc2)CC1 | inactive: 0.32% |
| O=C(NCC1(N2CCOCC2)CCCCC1)c1cc(=O)[nH]c2ccccc12 | inactive: 1.61% |
| O=C(NCC1(N2CCCCC2)CCCCC1)c1cccc([N+](=O)[O-])c1 | inactive: -1.67% |
| N#CC1(Nc2ccccc2)CCN(CCc2ccccc2)CC1 | inactive: 1.28% |
| COc1ccc(CN(CCCl)CCCl)cc1Cl | inactive: 8.72% |
| CN(C)c1cccc(C(=O)NCC2(N3CCCCC3)CCCCC2)c1 | inactive: 5.56% |
| CC(C)c1ccc(NC2CCN(C(=O)OC(C)(C)C)CC2)cc1 | inactive: -0.31% |
